Measured values taken from US5552411A, “Sulfonylquinolines as central nervous system and cardiovascular agents” (Warner-Lambert Company, priority 1995, dated 1996).

Protein sequences, listed by entry. Tags and fused reporters are not part of them.
UniProt P25929, whole entry: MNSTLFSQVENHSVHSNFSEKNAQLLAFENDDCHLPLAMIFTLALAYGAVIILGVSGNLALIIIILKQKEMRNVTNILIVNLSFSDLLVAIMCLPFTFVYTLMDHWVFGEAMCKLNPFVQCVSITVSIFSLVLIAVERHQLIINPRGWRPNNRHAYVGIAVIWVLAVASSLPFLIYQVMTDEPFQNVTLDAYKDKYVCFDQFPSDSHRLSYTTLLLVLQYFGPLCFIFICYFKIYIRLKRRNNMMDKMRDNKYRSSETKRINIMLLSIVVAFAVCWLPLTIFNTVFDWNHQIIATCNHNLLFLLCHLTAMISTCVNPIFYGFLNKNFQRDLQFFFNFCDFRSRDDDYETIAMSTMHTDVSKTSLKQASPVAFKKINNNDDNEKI

Target: T1, Human NPY1 Receptor (Homo sapiens, UniProt P25929)
T1 construct: expressed in transfected cells; host or cells: SK-N-MC human neuroblastoma cells
Assay: NPY cAMP method: effect on EC50 of NPY-induced inhibition of forskolin-stimulated cAMP production in SK-N-MC cells
Format: cell-based
Details: NPY alone, 10 μM forskolin

With “NPY: Neuropeptide Y (NPY), involved in the control of feeding in mammals; agonist in the cAMP assay” the EC50 was 0.3 nM.
